Assay results from patent US20080051419A1, “AMINE DERIVATIVES USEFUL AS ANTICANCER AGENTS” (PFIZER INC., priority 2006, published 2008).
Where two headings read alike, the source gives them in different places.

Amino acid sequences for entries named in this document (tags omitted). Residues count along the entry.
UniProt P31749, 118-480 S473D limits assumed: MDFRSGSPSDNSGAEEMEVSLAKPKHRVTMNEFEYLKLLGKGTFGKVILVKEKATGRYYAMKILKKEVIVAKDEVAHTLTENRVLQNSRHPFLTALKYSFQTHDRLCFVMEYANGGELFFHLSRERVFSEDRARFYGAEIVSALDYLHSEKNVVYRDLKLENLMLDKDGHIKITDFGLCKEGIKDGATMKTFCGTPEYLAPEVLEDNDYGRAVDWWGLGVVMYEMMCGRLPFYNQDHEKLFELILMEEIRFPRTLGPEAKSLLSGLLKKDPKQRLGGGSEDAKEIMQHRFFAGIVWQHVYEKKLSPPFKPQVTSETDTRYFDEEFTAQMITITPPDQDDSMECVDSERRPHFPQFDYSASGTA

What was measured:
Akt1 = Akt1 (Homo sapiens, UniProt P31749, S473D); assay: Akt1 kinase assay, fluorescence polarization (IMAP)
[1] = target: PKA, catalytic subunit, recombinant (Homo sapiens, UniProt P17612); assay: PKA IMAP Kinase Assay

Structure (SMILES)	IC50 (Akt1; read-out: Avg Akt kinase, μM (50% inhibition), average Akt kinase activity (IC50)) [µM]	IC50 (Akt1; read-out: Akt Kinase Activity, Table 6, selectivity study) [µM]	Selectivity Ratio (PKA/Akt) ([1]; PKA IC50 divided by Akt IC50)	IC50 ([1]; read-out: PKA Kinase Activity, Table 6, selectivity study) [nM]
Cc1c[nH]c2ncnc(N3CC[C@](N)(CNC(=O)c4ccc(F)cc4)C3)c12	0.00303			
Cc1c[nH]c2ncnc(N3CCC(N)(CNc4ccccc4)CC3)c12		0.145	0.56	81
